Source: US20020177166A1, “Binding motif of a receptor” (MEDVET SCIENCE PTY.LTD., priority 2000, published 2002)

System: Akt
Assay: Akt phosphorylation in CTL-EN whole cell lysates, Western blot
Type: cell-based
Details: IL-3
Experimental: (a) CTL-EN cells expressing IL-3Ra and either wtβc or βcHSRSLP→EFAAAA were starved for 12 hours in DMEM containing 0.5% FCS and then stimulated with 50 ng/ml IL-3 for the indicated times. Cells were lysed, whole cell lysates were subjected to SDS-PAGE and transferred to a nitrocellulose filter. Filters were immunoblotted and stripped sequentially with anti-phospho Akt pAb (1:500) anti-phosphorylated STAT5 mAb (2 mg/ml), anti-active MAPK pAb (50 ng/ml) and anti-ERK pAb (1 mg/ml) followed by detection with HRP-conjugated anti-rabbit or anti-mouse IgG antibody and ECL. (b) CTL-EN cells expressing IL-3Ra and either wtβc or βcHSRSLP→EFAAAA were starved for 12 hours in DMEM containing 0.5% FCS and stimulated with 50 ng/ml IL-3 for the indicated times. Cells were lysed and JNK was immunoprecipitated. The immunoprecipitates were then washed in 1× JNK buffer (10 mM MgCl2, 10 mM Tris-HCl ph 7.4) and the JNK activity was then analysed in an in vitro kinase assay using g^32PATP and 1 mg GST-jun1-79. Kinase assays were subjected to SDS-PAGE and transferred to a nitrocellulose filter. An autoradiogram of the filters is shown.
To further examine if 14-3-3 binding to βc was involved in regulating other signalling pathways besides the PI 3-kinase pathway, we investigated a number of additional signalling molecules known to be activated in response to IL-3. […]

B1: IL-3: recombinant human IL-3 produced in E. coli (protein, UniProt P08700 20-152, looked up)
Interleukin-3: APMTQTTPLKTSWVNCSNMIDEIITHLKQPPLPLLDFNNLNGEDQDILMENNLRRPNLEAFNRAVKSLQNASAIESILKNLLPCLPLATAAPTRHPIHIKDGDWNEFRRKLTFYLKTLENAQAQQTTLSLAIF
For B1, the “phosphorylation of Akt” value (CTL-EN wtβc) was “demonstrated phosphorylation of Akt” and the “phosphorylation of Akt” value (CTL-EN βcHSRSLP→EFAAAA) was “almost completely abolished”.
